From patent US20240216357A1 (SICHUAN HUIYU PHARMACEUTICAL CO., LTD., priority 2021, published 2024)

Test system: NCI-H1417 cells
Experiment: In vitro cell proliferation detection (CellTiter-Glo, 7 days)
Assay type: cell-based
Details: read-out: NCI-H1417 proliferation inhibition IC50

CS(=O)(=O)N1CCN(C(=O)c2cc(CN[C@@H]3C[C@H]3c3ccc(F)cc3)nc(Oc3ccc(-n4cccn4)cc3)n2)CC1 [Example 251]
pIC50: 6.22

pIC50: −log10 of the molar value.
